# Results taken from patent EP1263503B1, “USE OF CYANOQUINOLINES FOR TREATING OR […] POLYPS” (Wyeth Holdings Corporation, priority 2000, dated 2001).
# Read-outs that look alike come from different tables or passages of the source.
# Test system: intestinal polyps (adenomas)
# Details: polyps assessed at day 61
structure (smiles),measurement,setting,value
"CCOc1cc2ncc(C#N)c(Nc3ccc(F)c(Cl)c3)c2cc1NC(=O)C=CCN(C)C [Example 399, 4-Dimethylamino-but-2-enoic acid [4-(3-chloro-4-fluoro-phenylamino)-3-cyano-7-ethoxy-quinolin-6-yl]-amide]",Mean # Polyps ± S.D.,"Group I: 5 mg/kg/day in chow ad libitum for 60 days, control 32.6 ± 19.1",15.6 ± 6.0
same,Mean # Polyps ± S.D.,"Group II: 150 mg/kg/day in chow ad libitum for 60 days, control 19.5 ± 14.1",2.6 ± 1.6
